# The entries are a selection whose mix differs from that of the whole data set. Calls of active or inactive are those of the source.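 The calls were made as follows: active = activation factor of at least 2 for MT1-MMP transcription at 10 µM; inactive = the rest.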
# Experiment: MT1-MMP promoter reporter activation – cell-based, luciferase luminescence, primary screen (AID 750)
# Conditions: HT1080 MT1-MMP promoter luciferase reporter, overnight, at 10 µM, stronger effect = higher value
row,SMILES,activation factor
1,CC1(CBr)Cn2c(nc3ccccc3c2=O)S1 (configuration not stated),inactive: 1.1
2,O=P1(Nc2ccccn2)COc2ccccc2OC1,inactive: 1.2
3,Clc1n[nH]nc1-c1nn[nH][15n]1,inactive: 1.1
4,O=P1(Nc2ncccn2)COc2ccccc2OC1,inactive: 1.3
5,Cc1ccc(OCC(=O)OC2CN3CCC2CC3)cc1 (configuration not stated),inactive: 1.3
6,O=P1(Nc2ccc(Br)cn2)COc2ccccc2OC1,inactive: 1.3
7,Cc1nn(-c2ccccc2)c2c1P(=O)(N1CCOCC1)N(C)C(c1ccccc1)=N2 (configuration not stated),inactive: 1
8,CCOP1(=S)c2c(C)nn(CCC#N)c2N=C(c2ccc(F)cc2)N1C (configuration not stated),inactive: 1.4
9,CCOP1(=S)c2c(C)nn(CCC#N)c2N=C(c2ccccc2F)N1C (configuration not stated),inactive: 1
10,O=P(Nc1nccs1)(c1ccccc1)c1nc2ccccc2s1 (configuration not stated),inactive: 1.2
11,Cc1cccc(OCC(=O)OC2CN3CCC2CC3)c1 (configuration not stated),inactive: 1
12,O=C(OC1CN2CCC1CC2)C12CC3CC(CC(C3)C1)C2 (configuration not stated),inactive: 1.2
13,ClCCSc1nnc(-c2cccnc2)o1,inactive: 1.4
14,CCC(C)N(CC(C)C)C(=S)SC(NC(C)=O)C(Cl)(Cl)Cl (configuration not stated),inactive: 1.2
15,COP1(=S)c2c(C)nn(CCC#N)c2N=C(c2ccc(F)cc2)N1C (configuration not stated),inactive: 1.1
16,O=C(COc1ccccc1)OC1CN2CCC1CC2 (configuration not stated),inactive: 1
17,CC1CCN(C(=O)Oc2c(Cl)cc(Cl)c3cccnc23)CC1,inactive: 1.4
18,O=[N+]([O-])c1cccc2n[nH]nc12,inactive: 1.3
19,CCc1nc2c(n1)c1c(non1O)c1c2no[n+]1[O-],inactive: 0.1
20,CCOP(=O)(Nc1ccccc1)OCC,inactive: 1.1
21,Oc1ccccc1CNc1ccccn1,inactive: 1.3
22,Cc1c2non([O-])c-2c(C)[n+](=O)[n+]1[O-],inactive: 1.3
23,O=P1(Nc2nc3ccc(Cl)cc3s2)COc2ccccc2O1 (configuration not stated),inactive: 1.3
24,COC(=O)c1cc2c(s1)N=C(c1ccccc1)N(C)P2(=O)N1CCOCC1 (configuration not stated),inactive: 1.1
25,O=C(OC1CN2CCC1CC2)c1cccc(Cl)c1 (configuration not stated),inactive: 0.9
26,O=P(Nc1nccs1)(c1ccccc1)c1ccccc1,inactive: 1.1
27,c1nnnn1CCn1cnnn1,inactive: 1.1

# Source: PubChem BioAssay AID750 (Sanford-Burnham Center for Chemical Genomics, 2007)
